The record followed here is patent publication US5935591A, “Method for treatment of equine protozoal myeloencephalitis with thiazolides” (Romark Laboratories, L.C., priority 1998, dated 1999).

The conditions of the data set: HPLC; horses; oral administration of pharmaceutical formulations of nitazoxanide.

The structures appear in SMILES notation.

With `CC(=O)Oc1ccccc1C(=O)Nc1ncc([N+](=O)[O-])s1` [nitazoxanide, 2-(acetolyloxy)-N-(5-nitro 2-thiazoly) benzamide], the “active metabolite of nitazoxanide in blood and cerebral spinal fluid” value is “present in both the blood and the cerebral spinal fluid”.
